# Test results: patent US11015179B2, “Peptide having anti-viral effect and composition containing same” (priority 2015, dated 2021)
# Entries after “also recorded” stand apart in the source; their conditions may differ.
# Tests used:
# [1] = system: immune cells; assay: Distribution of immune cells (FACS) in whole HBV W4P genome-transgenic mice; format: in vivo; conditions: week 4
# Experimental: PEP1 is an HLA Class II-binding peptide derived from telomerase, and a 16-amino acid peptide triggering cytotoxic T-cell and helper T-cell immune responses. Therefore, to observe a change in the distribution of renal immune cells by the PEP1 peptide, transgenic mice were prepared by injecting the whole HBV W4P variant genome, on week 4, the whole blood was collected from the mice, and immune cells were isolated from the kidneys of the mice and then stained with lymphocyte markers (B cells (CD19B), CD4, CD8, NK1.1 cells) and myeloid cell markers (DC (CD11c), a macrophage marker (F4/80), a neutrophil marker (Ly-6G), a monocyte marker (Gr1)) according to an extracellular cell surface staining method for FACS analysis.
# [2] = system: JFH-1 cells; assay: Intracellular ROS production (DCF-DA) in JFH-1 cells; format: cell-based, human
# Experimental: One day after 5×10^4 (cells/well) cells of the JFH-1 cell line were seeded into a 24-well plate, intracellular ROS production was measured according to various experimental materials. Measurement of intracellular activity was carried out by staining the cells with dichlorodihydrofluoresein diacetate (DCF-DA; Invitrogen), and fluorescence measurement of ROS production was carried out at […] using Infinte M2000 Tecan (Tecan Trading AG, Switzerland). All fluorescent units were expressed as arbitrary units, and as a positive control group, hydrogen peroxide (H2O2, 2 mM) was used. ROS measurement for the Huh7.5 cells was also carried out by the same procedure as described above.
# As a control group, a human HCC cell line, and Huh7.5 and JFH-1 cell lines were treated with known representative antioxidants such as NAC (2 Mm), PDTC (100 μM), and vitamin E (10 μM) and then compared.
# The inventors inhibited the interaction with HSP90 by two methods: a use of antibodies against […] and antibodies against HSP90 or a use of an inhibitor occupying a catalytic position (ATP-binding pocket in the N-terminal of HSP90).
# [3] = system: HBV; assay: HBsAg ELISA in whole HBV W4P genome-transfected Huh7 cell line; format: cell-based, hepatitis B virus; conditions: Huh7, 10 μM, 48 hours
# Experimental: To observe virion production of entire HBV containing W4P by PEP1, 2×10^6 Huh7 cells were seeded into a 100 mm dish, and normal total HVC and HBV containing W4P were co-transiently transfected with a pCMV-β-gal vector including β-galactosidase, and incubated for 3 days. While changing the medium every 24 hours, the supernatant (sup) was collected. To analyze the supernatant, ELISA was performed according to experimental instructions using a generalized Bioelisa HBsAg color ELISA kit (BIOKIT S.A., Spain) and an HBeAg ELISA kit (BIOKIT S.A., Spain) that can detect a Hepatitis B surface antigen (HBsAg) and a Hepatitis B envelope antigen (HBeAg). 100 μl of each of the collected supernatants was added to each well, and reacted at 37° C. for 1 hour. 300 μl of a washing solution to each well for washing three times. 300 μl of a washing solution was added to the diluted conjugate solution for washing three times. 20 μl/ml of TMB was added to a substrate solution, and then 100 μl of the mixture was added to each well of a 96-well plate to allow a reaction for 30 minutes while light was blocked at room temperature. 100 μl of a stop solution was added to stop the reaction. The absorbance was read using an ELISA reader (Beckman, USA) at 450 nm. […]
# [4] = system: HBV; assay: Virion production (real-time PCR of HBV DNA) in W4P-transfected HepG2 cell line; format: cell-based, hepatitis B virus
# Experimental: To observe the potential for virion proliferation of whole HBV containing W4P, virion DNA was extracted from the entire supernatant while the medium was changed every 24 hours by the above-described method, and subjected to real-time quantitative PCR using a Quantitech SYBR Green Master-Mix kit (Qiagen). The entire supernatant was centrifuged using an ultracentrifuge equipped with an SW28 swing rotor at 20,000 rpm for 2 hours to precipitate the virus, and the precipitated viral pellets were suspended with 200 μl of sterilized DW. To extract virion DNA, the viral cells were treated with 100 μg/ml RNase A, 100 μl of a lysis buffer (0.25% SDS, 0.25M Tris, 0.25M EDTA), and 500 μg/ml of proteinase K for 2 hours at 37° C. Afterward, DNA was extracted by a phenol:chloroform extraction method. To see the capacity for viral proliferation, real-time PCR primers SF-Real (5′-[…]-3′, SEQ ID NO: 9) and SR-Real (5′-[…]-3′, SEQ ID NO: 10) targeting small surface area regions of HBV were designed. 12.5 μl IQ SYBR Green Supermix (Biorad, Calif., USA), 1.25 μl SF-Real primer, 1.25 μl SR-Real primer, 9 μl distilled water, and 1 μl cDNA were added to a 96-well plate. Real-time PCR was performed at 40 cycles of 5 min at 95° C., 15 sec at 94° C., and 15 sec at 60° C. using the Exicycler™ 96 Real-Time Quantitative Thermal Block System (Bioneer Co., Korea), and the temperature was increased from 53° C. to 90° C. by modulating to 0 sec at 95° C., 30 sec at 53° C. and modulating by 0.1° C. per second to analyze a melting curve.
# To observe the virion production in the supernatant after the inhibition of HBsAg secretion by the PEP1 peptide was observed, virions were collected from the supernatant obtained by the above-described method using PEG 6000, and HBV DNA was obtained using a virus DNA prep kit (Intron, Korea), and then quantified by real-time PCR.
# In the previous experiment, to observe the virion production according to peptide concentration in the supernatant, real-time PCR was performed by harvesting virions from the supernatant.
compound,measurement,setting,value
"CC[C@H](C)[C@H](NC(=O)[C@H](Cc1ccccc1)NC(=O)[C@H](CCCNC(=N)N)NC(=O)[C@H](CC(C)C)NC(=O)[C@H](CCCNC(=N)N)NC(=O)[C@H](CO)NC(=O)[C@@H](NC(=O)[C@H](CC(C)C)NC(=O)[C@H](CC(C)C)NC(=O)[C@H](C)NC(=O)[C@@H]1CCCN1C(=O)[C@H](CCCNC(=N)N)NC(=O)[C@H](C)NC(=O)[C@@H](N)CCC(=O)O)[C@@H](C)O)C(=O)N1CCC[C@H]1C(=O)N[C@@H](CCCCN)C(=O)O [PEP1, EARPALLTSRLRFIPK]","Cell distribution of myeloid-derived cells (DCs, macrophages, neutrophils, monocytes)",[1],no effect on cell distribution
same,"Distribution of lymphocytes (B cells, CD4, CD8, NK1.1 cells)",[1],no significant difference
same,ROS levels in the presence of anti-HSP70 antibodies,[2],had an inhibitory effect on ROS levels
same,ROS levels in the presence of anti-HSP90 antibodies,[2],did not have such an effect
same,ROS levels with control antibodies (isotype),[2],inhibition caused by PEP1 was observed
same,Antioxidant activity of PEP1 with increasing concentrations of PDTC,[2]; 2 hours,gradually decreased
same,ROS production,"[2]; 2 hours, PEP1 0.001-10 μM, NAC, PDTC 100 μM, vitamin E 10 μM, vs vehicle",considerably and dose-dependently inhibits ROS production; also recorded: concentration-dependently reduced ROS production
same,Antioxidant activity compared with conventional antioxidants,[2]; PEP1 at 1 and 10 μM,"equaled NAC, PDTC and vitamin E"
same,Extracellular HBsAg level,[3],no difference in extracellular inhibition
same,Intracellular HBsAg level,[3],intracellular inhibition
same,Virions produced in the supernatant,"[4]; HepG2, 10 μM, 48 hours",inhibitory effect
same,"Virion production, reduction effect","[4]; HepG2, at 10 μM",approximately 48%
same,Virion production,"[4]; HepG2, high concentration of 100",not effective
same,Virion production,"[4]; HepG2, low concentration of 0.01 μM",not effective
